What was measured:
[1] = biological target: T1, C-X-C chemokine receptor type 4 (Homo sapiens, UniProt P61073); assay: Agonist activity at CXCR4 in human CCRF-CEM cells assessed as induction of Ca2+ flux measured for 90 secs by calcium dye-based fluorescence assay; type: functional, cell-based
[2] = biological target: T1, C-X-C chemokine receptor type 4; assay: Antagonist activity at human CXCR4 in CCRF-CEM cells assessed as decrease in SDF-1alpha stimulated Ca2+ flux preincubated for 25 mins followed by SDF-1alpha addition measured for 90 secs by calcium dye-based fluorescence assay; type: functional, cell-based

Protein sequences, listed by entry. Tags and fused reporters are not part of them.
UniProt P61073, whole entry: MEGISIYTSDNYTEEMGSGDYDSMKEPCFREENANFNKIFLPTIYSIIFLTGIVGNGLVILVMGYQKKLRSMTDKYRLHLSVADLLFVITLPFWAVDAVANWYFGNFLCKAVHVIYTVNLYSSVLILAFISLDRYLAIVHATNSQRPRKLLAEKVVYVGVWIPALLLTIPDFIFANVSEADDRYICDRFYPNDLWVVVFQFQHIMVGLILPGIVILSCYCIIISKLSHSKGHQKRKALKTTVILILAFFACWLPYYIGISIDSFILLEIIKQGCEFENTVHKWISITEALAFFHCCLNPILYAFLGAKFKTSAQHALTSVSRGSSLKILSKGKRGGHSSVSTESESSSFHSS

Row | Structure (SMILES) | EC50 [1] | IC50 [2]
1 | c1cncc(CNCc2ccc(CN(C[C@H]3Cc4ccccc4CN3)[C@H]3CCCc4cccnc43)cc2)c1 | > 30 µM | 
2 | NCc1ccc(CN(C[C@H]2Cc3ccccc3CN2)[C@H]2CCCc3cccnc32)cc1 | > 30 µM | 
3 | c1ccc2c(c1)CN[C@@H](CN(Cc1ccc(CNCC3CCOCC3)cc1)[C@H]1CCCc3cccnc31)C2 | > 30 µM | 
4 | c1ccc(CNCCCCN(C[C@H]2Cc3ccccc3CN2)[C@H]2CCCc3cccnc32)nc1 | > 30 µM | 0.0895 µM
